Results from ChEMBL document CHEMBL5257125, “Discovery of pyrido[4,3-d]pyrimidinone derivatives as novel Wee1 inhibitors” (Bioorg Med Chem, 2023).

How the values were obtained:
Homo sapiens [1] = organism: Homo sapiens; experiment: Selectivity ratio of IC50 for PLK1 (unknown origin) to IC50 for human Wee1
Homo sapiens [2] = organism: Homo sapiens; experiment: Selectivity ratio of IC50 for JAK1 (unknown origin) to IC50 for human Wee1
Homo sapiens [3] = organism: Homo sapiens; experiment: Selectivity ratio of IC50 for CSK (unknown origin) to IC50 for human Wee1

- Ratio IC50 (Homo sapiens [1]): 500
- Ratio IC50 (Homo sapiens [2]): 500
- Ratio IC50 (Homo sapiens [3]): 500
SMILES: CC(=O)Nc1cc(Nc2cc3ncn(-c4c(Cl)cccc4Cl)c(=O)c3cn2)ccc1N1C[C@@H](C)N[C@@H](C)C1
